The target of the assay is Prostaglandin G/H synthase 1 (Homo sapiens, UniProt P23219). The experiment in a line: Inhibition of COX1.

Amino acid sequences for entries named in this document (tags omitted).
UniProt P23219, whole entry: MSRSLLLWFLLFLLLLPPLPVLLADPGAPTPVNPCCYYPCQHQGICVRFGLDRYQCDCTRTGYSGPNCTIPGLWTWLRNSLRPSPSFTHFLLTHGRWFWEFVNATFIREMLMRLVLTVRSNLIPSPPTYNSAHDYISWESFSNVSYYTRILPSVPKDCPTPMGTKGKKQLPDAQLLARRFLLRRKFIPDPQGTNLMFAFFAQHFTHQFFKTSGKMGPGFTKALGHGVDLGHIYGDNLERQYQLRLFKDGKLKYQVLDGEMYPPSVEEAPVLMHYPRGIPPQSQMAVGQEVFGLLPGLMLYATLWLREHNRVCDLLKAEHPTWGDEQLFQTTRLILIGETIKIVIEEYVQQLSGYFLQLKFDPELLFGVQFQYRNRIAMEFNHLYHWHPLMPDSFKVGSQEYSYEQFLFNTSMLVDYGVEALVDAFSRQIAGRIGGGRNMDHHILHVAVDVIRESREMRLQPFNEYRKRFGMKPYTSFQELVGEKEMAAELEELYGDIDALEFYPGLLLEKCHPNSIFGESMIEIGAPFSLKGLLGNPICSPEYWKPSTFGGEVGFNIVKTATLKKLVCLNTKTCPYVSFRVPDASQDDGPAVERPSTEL

Usually IC50 stands for the concentration needed to halve the response being measured. High values mean a need for much substance, low ones inhibition by little substance.

Compound `COc1ccc(-c2noc(CC(=O)O)c2-c2ccc(OC)cc2)cc1` [MOFEZOLAC] showed a concentration for half-maximal inhibition (IC50) of 1.4 nM.

The values above are taken from ChEMBL document CHEMBL1144769 (J Med Chem, 2008).
